# Ab-14 light chain CDR variants: yeast mating affinities

Data: MIT Lincoln Laboratory AlphaSeq set, Engelhart et al. 2022, doi:10.1038/s41597-022-01779-4, as distributed in FLAb.

Antigen: PDVDLGDISGINAS, a 14-residue peptide of the SARS-CoV-2 spike HR2 region.

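Phage display of a naive human antibody library on the peptide gave the parent. The library (AAYL50) carries one to three amino acid substitutions per variant, with no insertions or deletions. The assay is AlphaSeq: two haploid yeast populations carry antibody and antigen on their surface. Binding brings cells together so that they mate, and sequencing counts the barcode pairs among the diploids. A regression on co-assayed BCL2-family reference pairs converts the normalised counts of each replicate to an apparent Kd. The assay was run in three technical replicates.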

Parent scFv Ab-14: VH joined to VL by three GGGGS repeats. Changes lie in the light chain CDRs alone.
VH: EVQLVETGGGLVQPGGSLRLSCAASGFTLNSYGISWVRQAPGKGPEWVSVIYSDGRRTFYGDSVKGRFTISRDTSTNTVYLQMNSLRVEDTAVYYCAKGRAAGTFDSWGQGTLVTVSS
VL: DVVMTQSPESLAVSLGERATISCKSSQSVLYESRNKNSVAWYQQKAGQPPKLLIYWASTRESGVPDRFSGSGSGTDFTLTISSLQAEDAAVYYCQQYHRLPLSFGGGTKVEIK

Each variant is given by its three light chain CDRs, as the data file delimits them; those of the parent are KSSQSVLYESRNKNSVA, WASTRES, QQYHRLPLS.
Scale: log10 of Kd in nM, estimated from mating counts; low values are strong binders.
"ND" marks a missing value. The strain was present, yet no cells mated with the target were sequenced in that replicate, which points to weak or no binding.
Empty control strains, which show no peptide, gave a signal in 18% of pairings with library AAYL50; the median was 4.19 and 95% of these signals were weaker than 2.99. No background was subtracted. The control count says in how many pairings with the empty strains this scFv gave a signal, with their mean in brackets.

CDR-L1,CDR-L2,CDR-L3,"replicates, log10 nM",empty controls
KSSQSVLYESRNKMSVA,FASTRES,QQYHRLCLS,ND ND ND,1 of 9 (3.71)
KSSQSVLYESRNKNSVA,WASTHES,HQYHRLYLS,ND ND ND,3 of 9 (2.94)
KKSQSVQYESRNKNSLA,WASTRES,QQYHRLPLS,ND ND ND,3 of 9 (2.63)
KSSQSVLYESRNKNSVA,WAYTDEI,QQYHRLPLS,ND ND ND,0 of 9
KSFYSVLYESRNKNSVA,WASTRES,QQYKRLPLS,1.76 1.86 1.69,0 of 9
KSNQSVLYESRNKNSVA,WASERES,QQAHRLPLS,ND ND ND,0 of 9
KSSQSVLPESRNKNSVA,WASTRES,GQYHRLPLS,ND ND 2.89,0 of 9
KSSQSVLYESRNKNSVA,WASYREH,QQYHRTPLS,ND ND ND,0 of 9
KSSQSVLYESRNHNSVI,WASTREY,QQYHRLPLS,5.87 ND 5.64,5 of 9 (3.14)
KSSQSVLYESRNKNSKY,WASTRES,QQYHCLPLS,ND ND ND,1 of 9 (2.42)
KSSQDVLQESRNKNSVA,WASTRES,QYYHRLPLS,ND ND ND,0 of 9
KSSQSVLYESRNKTNVA,WASTRES,QQYHRLQLS,4.66 3.44 4.73,4 of 9 (4.29)
MSSQSVLYESRNKNSVA,WESTRSS,QQYHRLPLS,1.45 2.47 ND,0 of 9
KSSQSVCYDSRNKNSKA,WASTRES,QQYHRLPLS,ND ND ND,1 of 9 (4.40)
KSSQSVLYESRNKNSVA,WASTRTS,QQYYRDPLS,ND ND ND,1 of 9 (3.58)
KSSQSVLYESRNKNSVA,WAHTRES,QQYHRKPLS,ND ND ND,3 of 9 (4.26)
KSSQSVLYECRNHNSVA,WAFTRES,QQYHRLPLS,ND 3.85 ND,1 of 9 (4.59)
KSSQSVLYESRNKNSVA,QAMTRES,QQYHRLPLM,0.15 0.41 0.19,2 of 9 (3.87)
QSSQSVLYESRNKNSVA,YASTRES,HQYHRLPLS,ND ND 3.86,1 of 9 (4.84)
KSSQSVLLESRNKNSVA,WASWRES,QQYHRTPLS,ND ND ND,1 of 9 (3.83)
KSSQSVLYESRFKNSVA,RASTRES,QQYHALPLS,2.42 2.52 2.26,5 of 9 (4.82)
KSGQSVLYESRNKNSVA,WASTRES,YTYHRLPLS,ND ND ND,0 of 9
KSSQSVWYESRNGNSVA,WASTREQ,QQYHRLPLS,0.27 0.79 0.42,4 of 9 (4.80)
KSSQSVLYESIWKNSLA,WASTRES,QQYHRLPLS,1.64 2.17 2.38,0 of 9
KSSQSVWYESRNKNWVA,WAITRES,QQYHRLPLS,6.37 4.60 ND,3 of 9 (5.14)
QPSQSVLYESRNKNSVA,WASTRES,QQYHRRPLS,ND ND ND,1 of 9 (4.00)
KSSQSVLYYSRNKNSVT,WASIRES,QQYHRLPLS,ND ND ND,0 of 9
KSLQSVLYESRNKNSVA,WASARES,QQYHRLPLL,ND ND ND,0 of 9
KSSQSVNYSSRNKNSPA,WASTRES,QQYHRLPLS,ND ND ND,2 of 9 (4.93)
KSSQSVLEESRNKNSVA,WASTRES,QQYHHMPLS,0.54 1.38 0.54,0 of 9
KSSQSVLYESRNKNSVA,WASTAES,MQYHRTPLS,ND ND ND,0 of 9
KSSQSKLYDSRNKNSVA,WASTRES,QQYHRCPLS,ND ND 5.15,1 of 9 (3.90)
KSSQSVLYYSPNKNSVA,WAGTRES,QQYHRLPLS,2.31 2.36 2.36,0 of 9
KSSQSVLYEMRNKNYVA,WASTRES,QQYHILPLS,ND 2.97 ND,1 of 9 (3.18)
KKSQSVLYESRNKLSVE,WASTRES,QQYHRLPLS,ND ND ND,2 of 9 (3.28)
KSSQSVLYESRNKNSVA,WASTRLS,GQYHRLPLS,1.21 1.27 1.16,5 of 9 (4.76)
KSSQSVLYESRNKNSVA,WASTRES,QQCHRNPLW,1.02 1.32 1.29,3 of 9 (4.43)
AISQSVLYESRNKNSVA,WASTAES,QQYHRLPLS,1.32 1.54 1.49,0 of 9
KSSQSVLYVSRNKNSVA,WASTRES,QQYMRLGLS,ND ND ND,0 of 9
KSSQSVLYESRIKNSVA,WASTRMS,QQYHRSPLS,ND ND ND,2 of 9 (3.59)
KTSYSVLCESRNKNSVA,WASTRES,QQYHRLPLS,1.75 1.23 1.80,1 of 9 (3.87)
KSSQSVLYESRDKNKVA,WASTRES,QQYHRAPLS,ND ND ND,2 of 9 (4.33)
KSRLSVLYESRNKNSVA,WASTRES,QNYHRLPLS,4.17 2.98 5.85,4 of 9 (3.80)
KSSQRVLLESRNKNSVA,WASTRES,QQYHRLPLS,0.94 1.19 1.11,2 of 9 (3.25)
KSSQSVLYEFRNKNSVA,MASTRES,QQYHRLPLS,ND ND ND,0 of 9
KSSLSVLYPLRNKNSVA,WASTRES,QQYHRLPLS,2.00 1.49 0.95,0 of 9
KSSQSVLYESRNKNSVA,MASTRES,YQYFRLPLS,0.28 0.60 0.70,2 of 9 (3.85)
KSSQSVLYESRNKNSVA,WACTAES,QQYCRLPLS,ND ND ND,0 of 9
KSSQSVLYEVRNKNSVA,WASTRET,QQYHRDPLS,ND ND ND,0 of 9

The closing 6 entries, repeated:

{"CDR-L1": "KSSQRVLLESRNKNSVA", "CDR-L2": "WASTRES", "CDR-L3": "QQYHRLPLS", "replicates, log10 nM": "0.94 1.19 1.11", "empty controls": "2 of 9 (3.25)"}
{"CDR-L1": "KSSQSVLYEFRNKNSVA", "CDR-L2": "MASTRES", "CDR-L3": "QQYHRLPLS", "replicates, log10 nM": "ND ND ND", "empty controls": "0 of 9"}
{"CDR-L1": "KSSLSVLYPLRNKNSVA", "CDR-L2": "WASTRES", "CDR-L3": "QQYHRLPLS", "replicates, log10 nM": "2.00 1.49 0.95", "empty controls": "0 of 9"}
{"CDR-L1": "KSSQSVLYESRNKNSVA", "CDR-L2": "MASTRES", "CDR-L3": "YQYFRLPLS", "replicates, log10 nM": "0.28 0.60 0.70", "empty controls": "2 of 9 (3.85)"}
{"CDR-L1": "KSSQSVLYESRNKNSVA", "CDR-L2": "WACTAES", "CDR-L3": "QQYCRLPLS", "replicates, log10 nM": "ND ND ND", "empty controls": "0 of 9"}
{"CDR-L1": "KSSQSVLYEVRNKNSVA", "CDR-L2": "WASTRET", "CDR-L3": "QQYHRDPLS", "replicates, log10 nM": "ND ND ND", "empty controls": "0 of 9"}